Some results are limits rather than exact numbers.

The IC50 is the concentration that inhibits the measured activity by half.

For the assay, the target named is Bovine thrombin (Bos taurus, UniProt P00735). Briefly: biochemical.
The compound `CC[C@H](C)[C@H](NC(=O)[C@@H]1CCCN1C(=O)[C@H](Cc1ccc(O)cc1)NC(=O)CCC(=O)O)C(=O)N1CCC[C@H]1C(=O)N[C@@H](CCC(=O)O)C(=O)N[C@@H](CCC(=O)O)C(=O)N[C@@H](C)C(=O)N[C@@H](CC1CCCCC1)C(=O)N[C@H](CCC(=O)O)C(=O)O` [Peptide 1] yielded an IC50 of 25 to 200 µM.

Regarding `C[C@H](NC(=O)[C@H](CCC(=O)O)NC(=O)[C@H](CCC(=O)O)NC(=O)[C@@H]1Cc2ccccc2CN1C(=O)[C@@H]1CCCN1C(=O)[C@H](CCC(=O)O)NC(=O)[C@H](Cc1ccc(O)cc1)NC(=O)CCC(=O)O)C(=O)N[C@@H](CC1CCCCC1)C(=O)N[C@H](CCC(=O)O)C(=O)O` [Peptide 3], the IC50 is less than 25 µM.

As to `CC[C@H](C)[C@H](NC(=O)[C@@H]1CCCN1C(=O)[C@H](CCC(=O)O)NC(=O)[C@H](Cc1ccc(O)cc1)NC(=O)CCC(=O)O)C(=O)N1CCC[C@H]1C(=O)N[C@@H](CCC(=O)O)C(=O)N[C@@H](CCC(=O)O)C(=O)N[C@@H](C)C(=O)N[C@@H](CC(N)=O)C(=O)O` [Peptide 5], the IC50 was less than 25 µM.

Turning to `CC[C@H](C)[C@H](NC(=O)[C@@H]1CCCN1C(=O)[C@H](Cc1ccc(O)cc1)NC(=O)/C=C\C(=O)O)C(=O)N1CCC[C@H]1C(=O)N[C@@H](CCC(=O)O)C(=O)N[C@@H](CCC(=O)O)C(=O)N[C@@H](C)C(=O)N[C@@H](CC1CCCCC1)C(=O)N[C@H](CCC(=O)O)C(=O)O` [Peptide 6], the half-inhibitory concentration (IC50) was in the range of 25 to 200 µM.

Regarding `CC[C@H](C)[C@H](NC(=O)[C@H](CCC(=O)O)NC(=O)[C@H](Cc1ccc(O)cc1)NC(=O)CCC(=O)O)C(=O)N1CCC[C@H]1C(=O)N[C@@H](CCC(=O)O)C(=O)N[C@@H](CCC(=O)O)C(=O)N[C@@H](C)C(=O)N[C@@H](CC1CCCCC1)C(=O)N[C@H](CCC(=O)O)C(=O)O` [Peptide 8], the IC50 lay in the range of 25 to 200 µM.

With `C[C@H](NC(=O)[C@H](CCC(=O)O)NC(=O)[C@H](CCC(=O)O)NC(=O)[C@@H]1CCCN1C(=O)[C@@H]1CCCN1C(=O)[C@H](CCC(=O)O)NC(=O)[C@H](Cc1ccc(O)cc1)NC(=O)CCC(=O)O)C(=O)N[C@@H](CC1CCCCC1)C(=O)N[C@H](CCC(=O)O)C(=O)O` [Peptide 9], the 50% inhibitory concentration (IC50) was in the range of 25 to 200 µM.

Regarding `CC[C@H](C)[C@H](NC(=O)[C@@H]1CCCN1C(=O)[C@H](CCC(=O)O)NC(=O)[C@H](Cc1ccc(O)cc1)NC(=O)CCC(=O)O)C(=O)N[C@@H](CCC(=O)O)C(=O)N[C@@H](CCC(=O)O)C(=O)N[C@@H](C)C(=O)N[C@@H](CC1CCCCC1)C(=O)N[C@H](CCC(=O)O)C(=O)O` [Peptide 10], the IC50 was less than 25 µM.

In turn, `CC[C@H](C)[C@H](NC(=O)[C@@H]1CCCN1C(=O)[C@H](CCC(=O)O)NC(=O)[C@H](Cc1ccc(O)cc1)NC(=O)CCC(=O)O)C(=O)N1CCC[C@H]1C(=O)N[C@@H](CCC(=O)O)C(=O)N[C@@H](CCC(=O)O)C(=O)N[C@@H](C)C(=O)N[C@H](CCC(=O)O)C(=O)O` [Peptide 11] had an IC50 of less than 25 µM.

The compound `CC[C@H](C)[C@H](NC(=O)[C@@H]1CCCN1C(=O)[C@H](CCC(=O)O)NC(=O)[C@H](Cc1ccc(O)cc1)NC(=O)CCC(=O)O)C(=O)N1CCC[C@H]1C(=O)N[C@@H](CCC(=O)O)C(=O)N[C@@H](CCC(=O)O)C(=O)N[C@@H](C)C(=O)N[C@@H](CCC(N)=O)C(=O)O` [Peptide 12] yielded an IC50 of less than 25 µM.

For `CC[C@H](C)[C@H](NC(=O)[C@@H]1CCCN1C(=O)[C@H](CCC(=O)O)NC(=O)[C@H](Cc1ccccc1)NC(=O)CCC(=O)O)C(=O)N1CCC[C@H]1C(=O)N[C@@H](CCC(=O)O)C(=O)N[C@@H](CCC(=O)O)C(=O)N[C@@H](C)C(=O)N[C@@H](CCC(N)=O)C(N)=O` [Peptide 13], the IC50 was in the range of 25 to 200 µM.

The compound `CC[C@H](C)[C@H](NC(=O)[C@@H]1CCCN1C(=O)[C@H](CCC(=O)O)NC(=O)CCC(=O)O)C(=O)N1CCC[C@H]1C(=O)N[C@@H](CCC(=O)O)C(=O)N[C@@H](CCC(=O)O)C(=O)N[C@@H](C)C(=O)N[C@@H](CC1CCCCC1)C(=O)N[C@H](CCC(=O)O)C(=O)O` [Peptide 14] showed a half-inhibitory concentration (IC50) of 25 to 200 µM.

Values taken from patent EP0421367B1, “Anticoagulant peptides” (MERRELL PHARMACEUTICALS INC., priority 1989, dated 1991).
